In patent US20250288704A1, “CXCR4-LIGANDS FOR DIAGNOSTIC AND THERAPEUTIC USE AND PRECURSORS THEREOF” (priority 2021, published 2025):
Non-standard residues stand in square brackets, D forms with d. Residues, ends and D or L forms follow the SMILES beside them. Groups on a side chain read outwards from the residue. *: point of attachment. 2Nal = N[C@@H](Cc1ccc2ccccc2c1)C(=O)O; dNMeOrn = CN[C@H](CCCN)C(=O)O; 4Abz = Nc1ccc(C(=O)O)cc1; X1 = NCCNCC(CNCCN)C(=O)*; dDap = NC[C@@H](N)C(=O)O

Experiment: Octanol/PBS partition coefficient (logD7.4)
Assay type: physicochemical
Details: n-octanol/PBS pH 7.4, radiolabeled compound; listed as [^99mTc]Tc-CXCR4-14

C[C@@H](NC(=O)[C@@H](CCCNC(=N)N)NC(=O)[C@@H](CN)NC(=O)C(CNCCN)CNCCN)C(=O)Nc1ccc(C(=O)NCCC[C@@H]2C(=O)N[C@@H](CCCNC(=N)N)C(=O)N[C@@H](Cc3ccc4ccccc4c3)C(=O)NCC(=O)N[C@H](Cc3ccc(O)cc3)C(=O)N2C)cc1 [Tc-CXCR4-14] (cyclo([dY][dNMeOrn]([4Abz-dA-dR-dDap-X1])R[2Nal]G))
logD7.4: −1.75 ± 0.08 (8)
